Test results: paper PMC10227015, “From a drug repositioning to a structure-based drug design approach to tackle acute lymphoblastic leukemia” (Nature Communications, 2023)

Chains of the proteins cited; added tags and fusions are not shown. Residues count along the entry.
UniProt P10721, 26-976: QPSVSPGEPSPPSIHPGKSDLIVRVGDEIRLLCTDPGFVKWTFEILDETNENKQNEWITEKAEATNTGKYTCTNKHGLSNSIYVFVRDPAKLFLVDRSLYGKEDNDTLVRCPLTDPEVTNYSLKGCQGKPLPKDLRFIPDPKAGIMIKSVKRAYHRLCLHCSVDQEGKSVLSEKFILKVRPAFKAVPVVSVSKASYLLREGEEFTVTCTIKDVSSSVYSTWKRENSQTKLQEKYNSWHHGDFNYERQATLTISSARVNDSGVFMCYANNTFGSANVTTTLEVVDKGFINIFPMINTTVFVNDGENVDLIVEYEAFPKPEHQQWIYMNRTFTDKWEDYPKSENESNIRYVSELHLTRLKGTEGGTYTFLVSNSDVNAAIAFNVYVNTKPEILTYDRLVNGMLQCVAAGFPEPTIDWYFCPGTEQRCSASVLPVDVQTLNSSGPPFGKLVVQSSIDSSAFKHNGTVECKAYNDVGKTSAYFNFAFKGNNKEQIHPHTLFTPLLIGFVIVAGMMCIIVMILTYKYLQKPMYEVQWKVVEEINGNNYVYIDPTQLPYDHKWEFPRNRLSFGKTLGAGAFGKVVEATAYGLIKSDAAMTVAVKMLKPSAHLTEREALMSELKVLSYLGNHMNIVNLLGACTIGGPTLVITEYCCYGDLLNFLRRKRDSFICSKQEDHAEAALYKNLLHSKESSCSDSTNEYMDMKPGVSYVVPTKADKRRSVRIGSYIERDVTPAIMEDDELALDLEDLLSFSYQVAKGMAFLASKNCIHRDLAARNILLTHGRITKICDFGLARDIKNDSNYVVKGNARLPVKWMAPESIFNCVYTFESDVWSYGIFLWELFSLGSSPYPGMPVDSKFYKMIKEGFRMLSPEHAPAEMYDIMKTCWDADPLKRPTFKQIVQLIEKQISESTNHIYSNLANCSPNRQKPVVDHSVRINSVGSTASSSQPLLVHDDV

Molecular target: T1, human c-KIT (Homo sapiens, UniProt P10721)
T1 construct: expressed in transfected cells; host or cells: Ba/F3 (murine IL3-dependent pro-B cell line)
Assay: c-KIT cellular assay: Ba/F3 proliferation with SCF, without IL3
Type: cell-based
Conditions: no IL3, 48 h
Description: The generation of Ba/F3 cells expressing wild-type human c-KIT has been previously described by us[55],[56]. For the assay of Ba/F3 cell proliferation, plates were seeded with a total of 10,000 cells per well. Cells were supplemented, or not, with either 0.1% IL3 or 250 ng/ml murine SCF. IL3 was obtained from conditioned medium from X63-omIL-3 cells (obtained from Fritz Melchers laboratory (Berlin, Germany)) and murine SCF, which activates c-KIT, was purified from the conditioned medium of SCF-producing CHO cells. Cells were supplemented with compounds at varying concentrations (final 0.1% DMSO). […] The amount of reduced dye formed by metabolically active cells was quantified by its fluorescence measured at 560 nm (excitation) and 590 nm (emission) in a microplate reader (FLUOstar Omega, BMG Labtech). A blank well without cells was used as a background control. Each experiment was performed at least three times (with technical triplicates) and data are presented as the mean ± SD.

Cc1ccc(NC(=O)c2ccc(CN3CCN(C)CC3)cc2)cc1Nc1nc(-c2cccnc2)cs1 [Masitinib, masitinib, reference compound]
Cell proliferation of the IL-3 dependent Ba/F3 cell line Mean (% prolif) (3.7 nM): 92.1%
Cell proliferation of the IL-3 dependent Ba/F3 cell line Mean (% prolif) (11 nM): 85.8%
Cell proliferation of the IL-3 dependent Ba/F3 cell line Mean (% prolif) (33 nM): 67.2%
Cell proliferation of the IL-3 dependent Ba/F3 cell line Mean (% prolif) (99 nM): 42.4%
Cell proliferation of the IL-3 dependent Ba/F3 cell line Mean (% prolif) (296 nM): 11.3%
Cell proliferation of the IL-3 dependent Ba/F3 cell line Mean (% prolif) (889 nM): 2.8%
Cell proliferation of the IL-3 dependent Ba/F3 cell line Mean (% prolif) (2667 nM): 1.3%
Cell proliferation of the IL-3 dependent Ba/F3 cell line Mean (% prolif) (8000 nM): 0.8%
Cell proliferation of the IL-3 dependent Ba/F3 cell line Mean (% prolif) (24000 nM): 0.667%
